This assay concerns the target microtubule (in vitro reconstituted, taxol-stabilised). In words: cell-based or functional assay.

The results in this text go back to US11214624.

As to “His-p68-CaM fusion protein (Histidine-tagged p68-CaM, expressed in E. coli) (from UniProt P0DP23 1-149)”, the % of gliding microtubules (n = 50), ATP stood at 85.5%; the Maximum gliding speed, ATP was 0.13 µm/min; the Mean gliding speed, ATP was 0.09 µm/min.
